This passage reports LD50 and GHS category results from the CATMoS acute toxicity set (Mansouri et al. 2021).

Molecules are shown by their SMILES.

The nature of one data set: rat acute oral toxicity. As to conditions: in vivo.
As a reminder, the LD50 is the dose expected to kill half of the subjects tested. Lower therefore signals greater toxicity. `Cc1cc([N+](=O)[O-])cc([N+](=O)[O-])c1O`: the LD50 is 7 mg/kg. Same read-out and setting: the value for `CC(C)OP(=S)(OC(C)C)SCCNS(=O)(=O)c1ccccc1` was 270 mg/kg. In turn, `CCC(C)(C)OO` gave an LD50 of 483 mg/kg. The same measure, in the same setting: the value for `CCCCO[PH](=O)OCCCC` was 3200 mg/kg.

The nature of the next data set: GHS categories as the set defines them, by LD50: 1 up to 5, 2 up to 50, 3 up to 300, 4 up to 2000, 5 above 2000 mg/kg. To be noted: rat; in vivo; po.
For the compound `O=P(Cl)(Oc1ccccc1)Oc1ccccc1`, the GHS category is listed as 4. Compound `COP(=O)(OC)c1ccccc1` returned a GHS category of 4.

In turn, `CC1(C)COP(=S)(OP2(=S)OCC(C)(C)CO2)OC1` had a GHS category of 5. Same read-out and setting: in the case of `CN(SC(Cl)(Cl)C(Cl)Cl)C(=O)Oc1cccc2c1OC(C)(C)C2` it was 3; in that of `CC(C)C(=O)OOC(=O)C(C)C`, 5.
